{"sequences": {"note": "Chains of the proteins cited; added tags and fusions are not shown. Lines headed by an entry give the natural chain unless they say otherwise; changes in a name come on top.", "UniProt P49862": "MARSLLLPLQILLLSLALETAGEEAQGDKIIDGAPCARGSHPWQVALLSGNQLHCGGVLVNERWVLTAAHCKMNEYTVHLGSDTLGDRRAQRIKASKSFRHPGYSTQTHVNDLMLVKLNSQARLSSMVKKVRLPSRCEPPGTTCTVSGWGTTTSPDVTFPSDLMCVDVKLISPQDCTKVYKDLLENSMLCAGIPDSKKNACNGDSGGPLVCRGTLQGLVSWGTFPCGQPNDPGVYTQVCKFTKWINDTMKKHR"}, "source": "PubChem BioAssay AID652039", "about": "(The Scripps Research Institute Molecular Screening Center, 2013)", "note": "Only a part is listed here, and it is no random draw. The source made the active and inactive calls.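 The calls were made as follows: active = activation above the mean of all tested compounds plus 3 SD, computed per campaign excluding outliers beyond control limits (cut at about 13% in these data); inactive = the rest.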"}
{"target": "Kallikrein-7 (Homo sapiens) (UniProt P49862)", "assay": "proKLK7 zymogen activators, primary screen, biochemical, fluorescence intensity (AID 652039)", "details": "purified proKLK7, EDANS-DABCYL substrate fluorescence; at 7 µM; hits give high values; 100% is mature enzyme control, 0% vehicle"}
{"smiles": "CC(=O)NC(SC(=S)N(CC(C)C)CC(C)C)C(Cl)(Cl)Cl", "note": "(stereo not drawn)", "activation": "inactive: -0.63%"}
{"smiles": "Cc1ccccc1OP(=O)(Nc1ccccn1)Oc1ccccc1C", "activation": "inactive: -0.39%"}
{"smiles": "CC(NC(=O)COC(=O)C(O)(c1ccccc1)c1ccccc1)c1ccccc1", "note": "(stereo not drawn)", "activation": "inactive: 0.05%"}
{"smiles": "CN(C)C(=O)Oc1noc2ccccc12", "activation": "inactive: 0.32%"}
{"smiles": "O=c1c2cc([N+](=O)[O-])ccc2[nH]c2c([N+](=O)[O-])cc([N+](=O)[O-])cc12", "activation": "inactive: -0.94%"}
{"smiles": "c1ccc(-c2nn[nH]n2)c(-c2nn[nH]n2)c1", "activation": "inactive: 0.1%"}
{"smiles": "Cc1ccc(NP(=O)(Oc2cccc(C)c2)Oc2cccc(C)c2)nc1", "activation": "inactive: -0.24%"}
{"smiles": "O=C(NC1CCS(=O)(=O)C1)NP(=S)(Oc1ccccc1)Oc1ccccc1", "note": "(stereo not drawn)", "activation": "inactive: 0.42%"}
{"smiles": "CCNC(=S)/N=C(\\N)N[N+](=O)[O-]", "activation": "inactive: -0.31%"}
{"smiles": "O=P1(N(CCCl)CCCl)OCCC2CCCCN21", "note": "(stereo not drawn)", "activation": "inactive: -0.12%"}
{"smiles": "Cc1ccccc1CN(C)C(=O)COC(=O)C(O)(c1ccccc1)c1ccccc1", "activation": "inactive: 0.06%"}
{"smiles": "C[C@@H]1C=CCP(=O)(Oc2ccccc2)O1", "note": "(stereo partly drawn)", "activation": "inactive: -0.18%"}
{"smiles": "C[C@H]1OP(=O)(Oc2ccccc2)C[C@@H]2O[C@@H]21", "note": "(stereo partly drawn)", "activation": "inactive: -0.55%"}
{"smiles": "N#C/C(=C\\c1ccc(N(CCBr)CCBr)cc1)C(N)=O", "activation": "inactive: 1%"}
{"smiles": "CC(=O)c1ccc(N2CC2c2ccncc2)cc1", "note": "(stereo not drawn)", "activation": "inactive: -0.36%"}
{"smiles": "COC(=O)C1(C)COP(=O)(NCc2ccccc2)OC1", "note": "(stereo not drawn)", "activation": "inactive: -0.3%"}
{"smiles": "CC(=O)Nc1ccc([As](=O)(O)O)c(O)c1", "activation": "inactive: 0.65%"}
{"smiles": "CC(=O)Nc1ccc(Oc2c([N+](=O)[O-])cc([N+](=O)[O-])cc2[N+](=O)[O-])cc1", "activation": "inactive: -0.14%"}
{"smiles": "O=P1(Nc2nc3ccc(Cl)cc3s2)COc2ccccc2O1", "note": "(stereo not drawn)", "activation": "inactive: 0.37%"}
{"smiles": "CCOc1ccc(C2=NCC(CBr)S2)cc1", "note": "(stereo not drawn)", "activation": "inactive: -0.74%"}
{"smiles": "CC(C)(C)C(=O)NC(Sc1ccccc1)C(Cl)(Cl)Cl", "note": "(stereo not drawn)", "activation": "inactive: 0.09%"}
{"smiles": "CCc1cc(O)c([N+](=O)[O-])c(C)c1[N+](=O)[O-]", "activation": "inactive: -0.56%"}
{"smiles": "Nc1cccc2c([As](=O)(O)O)cccc12", "activation": "inactive: -22.4%"}
{"smiles": "Cc1ccc(NCCc2c([N+](=O)[O-])cc([N+](=O)[O-])cc2[N+](=O)[O-])cc1", "activation": "inactive: -0.32%"}
{"smiles": "CCCOP(=S)(Nc1nc(N)cc(=O)[nH]1)OCCC", "activation": "inactive: -0.26%"}
{"smiles": "COc1cc(C2NCCC3(OCCO3)C2(C)C)cc(OC)c1OC", "note": "(stereo not drawn)", "activation": "inactive: 0.13%"}
{"smiles": "CCOP(=O)(Nc1cccc2ccccc12)OCC", "activation": "inactive: 0.03%"}
{"smiles": "O=C(OC1CN2CCC1CC2)c1ccc(Cl)cc1", "note": "(stereo not drawn)", "activation": "inactive: -0.67%"}
{"smiles": "COc1cc(C(=O)NCC2(N3CCOCC3)CCCCC2)cc(Cl)c1OC(C)C", "activation": "inactive: 0.85%"}
{"smiles": "O=[As](O)(O)c1cccnc1", "activation": "inactive: 0.72%"}
{"smiles": "CS(=O)(=O)c1ccc(Cl)c(NC(=O)COC(=O)C(O)(c2ccccc2)c2ccccc2)c1", "activation": "inactive: -0.51%"}
{"smiles": "O=[As](O)(c1cccc(O)c1)c1cccc(O)c1", "activation": "inactive: 0.5%"}
{"smiles": "Cc1cccc(OCC(=O)OC2CN3CCC2CC3)c1", "note": "(stereo not drawn)", "activation": "inactive: 0.57%"}
{"smiles": "NC(=O)Nc1ccc([As](=O)(O)O)cc1", "activation": "inactive: -0.85%"}
{"smiles": "N#CCCN(C(=O)COC(=O)C(O)(c1ccccc1)c1ccccc1)c1ccc(F)cc1", "activation": "inactive: -0.27%"}
{"smiles": "CN(C(=O)Cc1ccccc1)[C@@H]1CC[C@]2(CCCO2)C[C@H]1N1CCCC1", "activation": "inactive: 0.24%"}
{"smiles": "CCOP1(=S)c2c(C)nn(CCC#N)c2N=C(c2ccc(F)cc2)N1C", "note": "(stereo not drawn)", "activation": "inactive: 0.5%"}
{"smiles": "CN(C)C(=O)c1cc([N+](=O)[O-])cc2c1-c1c(cc([N+](=O)[O-])cc1[N+](=O)[O-])C2=O", "activation": "inactive: 0.38%"}
{"smiles": "O=[N+]([O-])c1ccc2c(c1)nnn2O", "activation": "inactive: -0.31%"}
{"smiles": "CN(C(=O)Cc1ccc(Cl)c(Cl)c1)[C@H]1CC[C@@]2(CCCO2)C[C@@H]1N1CCCC1", "activation": "inactive: -0.29%"}
{"smiles": "CCOP1(=S)c2c(C)nn(CCC#N)c2N=C(c2ccccc2F)N1C", "note": "(stereo not drawn)", "activation": "inactive: -0.4%"}
{"smiles": "O=P(Nc1nccs1)(Oc1ccccc1)Oc1ccccc1", "activation": "inactive: -0.18%"}
{"smiles": "O=C(O)COc1ccc([As](=O)(O)O)cc1[N+](=O)[O-]", "activation": "inactive: -0.4%"}
{"smiles": "Nc1ccccc1[As](=O)(O)c1ccccc1", "activation": "inactive: 0.09%"}
{"smiles": "Cc1ccc(S(=O)(=O)N(CCCN)CCCc2c(C)nc(N)[nH]c2=O)cc1", "activation": "inactive: 0.46%"}
{"smiles": "O=P1(Nc2ncccn2)COc2ccccc2OC1", "activation": "inactive: -0.24%"}
{"smiles": "Nc1cccc([As](=O)(O)c2ccccc2)c1", "activation": "inactive: 0.04%"}
{"smiles": "NS(=O)(=O)c1cccc(NC(=O)COC(=O)C(O)(c2ccccc2)c2ccccc2)c1", "activation": "inactive: -0.23%"}
{"smiles": "O=P1(Nc2ccc(Br)cn2)COc2ccccc2OC1", "activation": "inactive: 0.25%"}
{"smiles": "O=[As](O)(c1cccs1)c1cccs1", "activation": "inactive: -0.6%"}
{"smiles": "Cc1ccc(OCC(=O)OC2CN3CCC2CC3)cc1", "note": "(stereo not drawn)", "activation": "inactive: -0.49%"}
{"smiles": "Cc1nn(-c2ccccc2)c2c1P(=O)(N1CCOCC1)N(C)C(c1ccccc1)=N2", "note": "(stereo not drawn)", "activation": "inactive: -0.01%"}
{"smiles": "Cc1ccc(C(=O)OC2CN3CCC2CC3)cc1", "note": "(stereo not drawn)", "activation": "inactive: -0.33%"}
{"smiles": "CC1CCC(C(C)C)C(OP(=O)(Nc2ccccn2)c2ccccc2)C1", "note": "(stereo not drawn)", "activation": "inactive: -0.1%"}
{"smiles": "CN(C)C1(CNC(=O)c2ccc(S(C)(=O)=O)cc2)CCCCC1", "activation": "inactive: 0.27%"}
{"smiles": "O=C(/C=C/c1ccccc1)OC1CN2CCC1CC2", "note": "(stereo not drawn)", "activation": "inactive: -0.32%"}
{"smiles": "CCCC1OP(=O)(Nc2ccccc2)OCC1CC", "note": "(stereo not drawn)", "activation": "inactive: -0.25%"}
{"smiles": "COc1ccccc1CNC(=O)COC(=O)C(O)(c1ccccc1)c1ccccc1", "activation": "inactive: 0.19%"}
{"smiles": "CN(C(=O)Cc1ccc(Cl)c(Cl)c1)[C@@H]1CCCC[C@H]1N1CCCC1", "activation": "inactive: 0.1%"}
{"smiles": "CC(C)/C=N\\N=C(\\N)N[N+](=O)[O-]", "activation": "inactive: -0.24%"}
{"smiles": "CN(C(=O)Cc1ccc(Cl)c(Cl)c1)C1CCCC[C@@H]1N1CCCC1", "note": "(stereo partly drawn)", "activation": "inactive: 0.2%"}
{"smiles": "CC1(CBr)Cn2c(nc3ccccc3c2=O)S1", "note": "(stereo not drawn)", "activation": "inactive: 0.23%"}
{"smiles": "CCC1=CC2Cc3nc4ccc(Cl)cc4c(N)c3C(C1)C2", "note": "(stereo not drawn)", "activation": "inactive: 0.32%"}
